Laboratory results taken from patent publication US20030032791A1, “Novel melanocortin-4 receptor sequences and screening assays to identify compounds useful in regulating animal appetite and metabolic rate” (priority 2000, published 2003).
pIC50: −log10 of the molar value.

By UniProt entry, the sequences of proteins in these tests, tags left out. Where a name states a change or a piece, a line headed by the entry shows the natural chain unless it says otherwise.
UniProt P41968: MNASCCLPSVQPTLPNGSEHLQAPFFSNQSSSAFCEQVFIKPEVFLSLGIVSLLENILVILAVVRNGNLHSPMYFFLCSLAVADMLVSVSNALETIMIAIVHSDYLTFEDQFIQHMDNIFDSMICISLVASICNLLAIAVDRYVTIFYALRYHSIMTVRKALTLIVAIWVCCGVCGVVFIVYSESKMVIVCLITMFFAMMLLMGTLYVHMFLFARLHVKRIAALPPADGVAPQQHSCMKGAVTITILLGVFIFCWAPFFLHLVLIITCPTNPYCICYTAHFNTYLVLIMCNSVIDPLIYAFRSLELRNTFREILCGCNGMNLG

Biological target: hMC3R (Homo sapiens, UniProt P41968)

pIC50: 8.34
Substance: MTII (peptide)
